US8586588B2, “Aryl pyridazinone derivatives and their use as H3 receptor ligands” (Cephalon, Inc., priority 2006, dated 2013)

Chains of the proteins cited; added tags and fusions are not shown. Lines headed by an entry give the natural chain unless they say otherwise; changes in a name come on top.
UniProt Q9QYN8: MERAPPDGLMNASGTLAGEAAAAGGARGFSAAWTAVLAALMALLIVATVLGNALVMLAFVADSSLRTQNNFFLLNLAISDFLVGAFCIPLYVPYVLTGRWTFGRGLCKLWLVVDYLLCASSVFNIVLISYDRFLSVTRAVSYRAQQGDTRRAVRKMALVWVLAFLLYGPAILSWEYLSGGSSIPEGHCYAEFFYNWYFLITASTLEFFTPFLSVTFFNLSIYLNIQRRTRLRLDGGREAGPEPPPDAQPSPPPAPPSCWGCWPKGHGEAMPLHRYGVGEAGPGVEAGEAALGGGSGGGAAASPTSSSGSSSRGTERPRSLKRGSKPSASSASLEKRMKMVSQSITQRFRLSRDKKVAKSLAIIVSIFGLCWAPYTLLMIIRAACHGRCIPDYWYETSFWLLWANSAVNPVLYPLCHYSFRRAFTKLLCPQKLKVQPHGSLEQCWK
UniProt Q9Y5N1: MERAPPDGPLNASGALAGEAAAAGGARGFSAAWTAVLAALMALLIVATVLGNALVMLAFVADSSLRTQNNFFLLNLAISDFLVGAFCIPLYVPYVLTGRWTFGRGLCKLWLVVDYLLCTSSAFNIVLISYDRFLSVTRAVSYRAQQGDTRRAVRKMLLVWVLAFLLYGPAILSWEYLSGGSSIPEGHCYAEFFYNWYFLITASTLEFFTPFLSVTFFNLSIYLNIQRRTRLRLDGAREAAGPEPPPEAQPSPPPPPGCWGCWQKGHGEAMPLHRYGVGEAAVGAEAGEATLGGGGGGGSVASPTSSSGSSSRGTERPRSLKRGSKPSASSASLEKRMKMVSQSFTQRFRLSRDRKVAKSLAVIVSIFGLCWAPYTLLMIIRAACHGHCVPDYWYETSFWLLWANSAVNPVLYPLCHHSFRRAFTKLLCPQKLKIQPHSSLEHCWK

What was measured:
[1] = molecular target: T1, rat histamine H3 receptor (Rattus norvegicus, UniProt Q9QYN8); assay: Rat H3 radioligand binding ([3H]-N-alpha-methylhistamine, CHO-A3 cell membranes, SPA); settings: Table B, binding constant as letter class
T1 construct: encoding the entire 445-amino-acid rat histamine H3 receptor; expressed in transfected cells
Description: (§1) This was engineered into the pIRES-neo3 mammalian expression vector, which was stably transfected into the CHO-A3 cell line (Euroscreen, Belgium), followed by clonal selection by limiting dilution. Cells were harvested and cell pellets were frozen (−80° C.). Cell pellets were resuspended in 5 mM Tris-HCl, pH 7.5 with […] and a cocktail of protease inhibitors (Complete Protease Inhibition Tablets, Roche Diagnostics). Cells were disrupted using a polytron cell homogenizer and the suspension was centrifuged at 1000×g for 10 minutes at 4° C. The pellet was discarded and the supernatant centrifuged at 40,000×g for 30 min at 4° C. This membrane pellet was washed in membrane buffer containing 50 mM Tris-HCl, pH 7.5 with 0.6 mM EDTA, 5 mM MgCl2 and protease inhibitors, recentrifuged as above and the final pellet resuspended in membrane buffer plus 250 mM sucrose and frozen at −80° C.
Membranes were resuspended in 50 mM Tris HCl (pH 7.4), 5 mM MgCl2, 0.1% BSA. […] Non-specific binding was determined in the presence of 10 μM clobenpropit. Radioligand bound to receptor, and therefore in proximity to the scintillation beads, was measured using a MicroBeta scintillation counter.

human H3 receptor = molecular target: T2, human H3 receptor (Homo sapiens, UniProt Q9Y5N1); assay: Human H3 radioligand binding ([3H]-N-alpha-methylhistamine, CHO cell membranes, SPA); settings: Table B, binding constant as letter class
T2 construct: expressed in transfected cells
Description: as §1, with “Cell” for “This was engineered into the pIRES-neo3 mammalian expression vector, which was stably transfected into the CHO-A3 cell line (Euroscreen, Belgium), followed by clonal selection by limiting dilution. Cells were harvested and cell pellets were frozen (−80° C.). Cell”
Membranes were resuspended in 50 mM Tris HCl (pH 7.4), 5 mM MgCl2, 0.1% BSA. The membrane suspensions (10 μg protein per well) were incubated in a 96 well microtiter plate with [^3H]-N-alpha-methylhistamine (approximately 1 nM final concentration), test compounds at various concentrations (0.01 nM-30 μM) and scintillation proximity beads (Perkin Elmer, FlashBlueGPCR Scintillating Beads) in a final volume of 80 μl for 4 hours at room temperature, protected from light. Non-specific binding was determined in the presence of 10 μM clobenpropit. Radioligand bound to receptor, and therefore in proximity to the scintillation beads, was measured using a MicroBeta scintillation counter.

Row | Structure (SMILES) | Ki [1] | Ki (human H3 receptor)
1 | C[C@@H]1CCCN1CCCOc1ccc(-c2cnn(-c3ccccn3)c(=O)c2)cc1 [Example 94, 5-{4-[3-((R)-2-Methyl-pyrrolidin-1-yl)-propoxy]-phenyl}-2-pyridin-2-yl-2H-pyridazin-3-one] | 0.1 to 100 nM | 0.1 to 100 nM
2 | C[C@H]1CCCN1CCCOc1ccc(-c2cnn(-c3ccccn3)c(=O)c2)cc1 [Example 109, 5-{4-[3-((S)-2-Methyl-pyrrolidin-1-yl)-propoxy]-phenyl}-2-pyridin-2-yl-2H-pyridazin-3-one] | 0.1 to 100 nM | 0.1 to 100 nM
